Results as given in US20180282373.

Target: purified recombinant full-length WDR5 (UniProt P61964)

Substance: GST-tagged MLL1 Win-SET domain, MLL1(3745-3969), Win motif arginine to alanine mutant
- core complex methyltransferase activity, H3K4me1 and H3K4me2 peptides, mutant against wild type: at least a 2-fold reduction in activity compared to their wild-type counterparts
